Legend:
[1] = molecular target: Hrh3 protein (Rattus norvegicus, UniProt Q5PPG3)
[2] = molecular target: Histamine H3 receptor (Homo sapiens, UniProt Q9Y5N1)

Protein sequences, listed by entry. Tags and fused reporters are not part of them. Lines headed by an entry give the natural chain unless they say otherwise; changes in a name come on top.
UniProt Q5PPG3, whole entry: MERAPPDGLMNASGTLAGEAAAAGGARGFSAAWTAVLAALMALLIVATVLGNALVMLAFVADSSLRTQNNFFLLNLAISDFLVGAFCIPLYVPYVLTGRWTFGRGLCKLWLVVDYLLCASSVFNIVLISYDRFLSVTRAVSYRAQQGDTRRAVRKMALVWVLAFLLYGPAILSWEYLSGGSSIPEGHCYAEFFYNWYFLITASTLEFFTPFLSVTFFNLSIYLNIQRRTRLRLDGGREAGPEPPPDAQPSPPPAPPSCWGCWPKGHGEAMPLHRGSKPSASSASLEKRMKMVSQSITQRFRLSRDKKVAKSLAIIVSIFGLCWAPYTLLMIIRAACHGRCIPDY
UniProt Q9Y5N1: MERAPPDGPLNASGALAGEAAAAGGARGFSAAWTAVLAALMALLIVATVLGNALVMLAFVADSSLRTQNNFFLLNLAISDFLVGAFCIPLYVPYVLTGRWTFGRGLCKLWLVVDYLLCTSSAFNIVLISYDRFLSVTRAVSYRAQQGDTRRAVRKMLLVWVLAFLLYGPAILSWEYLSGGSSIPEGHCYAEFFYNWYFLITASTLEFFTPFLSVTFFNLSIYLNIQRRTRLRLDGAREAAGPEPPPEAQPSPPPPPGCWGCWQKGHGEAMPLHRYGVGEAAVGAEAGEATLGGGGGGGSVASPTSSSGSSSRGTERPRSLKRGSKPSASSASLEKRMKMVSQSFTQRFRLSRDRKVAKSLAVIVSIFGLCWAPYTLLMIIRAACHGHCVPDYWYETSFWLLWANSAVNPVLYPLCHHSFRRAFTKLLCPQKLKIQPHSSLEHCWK

| Compound | Ki [1] | Ki [2] |
| --- | --- | --- |
| NCCCCCc1c[nH]cn1 [5-(1H-imidazol-5-yl)pentan-1-amine] | 5.01 nM | – |
| NC(=NCc1ccc(Cl)cc1)SCCCc1cnc[nH]1 [VUF 9153] | 0.87 nM | 3.8 nM |

Source: BindingDB's records for PubMed 11714875 (Vrije Universiteit, 2001)
